In patent publication US20240139170A1, “TOPICAL FORMULATIONS OF A JAK 1/3 INHIBITOR AND METHODS OF USE THEREOF FOR TREATMENT OF ATOPIC DERMATITIS AND OTHER SKIN CONDITIONS” (ACLARIS THERAPEUTICS, INC., priority 2021, published 2024):

Settings: in vivo

Compound: CCOC(=O)c1cnc2[nH]ccc2c1N[C@@H]1CCCN(C(=O)CC#N)C1 [Compound I, ethyl (R)-4-((1-(2-cyanoacetyl)piperidin-3-yl)amino)-1H-pyrrolo[2,3-b]pyridine-5-carboxylate]
- Withdrawal from the study due to an adverse event: no patients in the Compound I group withdrew from the study due to an adverse event
